Reference: PubChem BioAssay AID592 (National Center for Advancing Translational Sciences (NCATS), 2007)
The other results are listed elsewhere or left out. Activity calls are given as the source filed them. How the calls were made is not given here.

Test: qHTS Assay for Spectroscopic Profiling in A647 Spectral Region
Settings: Compound fluorescence, A647 channel (570/671 nm), Tris buffer; stronger effect = higher value
Excerpt: NIH Molecular Libraries Screening Centers Network [MLSCN] NIH Chemical Genomics Center [NCGC] […] Occasionally, the artifactual effect may originate from the compounds own spectral or other biophysical properties which generally tend to track its assay concentration. Pre-screening/profiling the library with respect to the compounds spectral properties should help one exclude false positives early on. While the most informative fluorescent profiling data set is obtained by performing a full excitation and emission scan of each well by using a monochromator-based plate reader, such an approach is practical only on a very limited scale as scanning each well requires long time. An alternative approach, applied here, is to perform plate reader scans using selected excitation and emission wavelength pairs to generate a multidimensional relational database that correlates compound concentration and the respective relative fluorescence intensity at a given wavelength set. A standard curve of Alexa 647 (A647) present on each plate as six-point concentration series, was used to compute a normalized fluorescence response, termed dye-equivalent concentration, for each compound at each concentration.
NCGC Assay Protocol Summary: Buffer: 100 mM Tris buffer, pH 8.0 Dye standard plate: The wells in columns 1 through 4 of a Kalypsys polypropylene 1536-well compound plate were filled with standard solutions of fluorophore corresponding to the spectral region of interest. Solutions of A647 were placed in the following wells: AC1, AD1: 3 mM, AC2, AD2: 300 uM, AC3, AD3: 30 uM, AC4, AD4: zero (DMSO), AE1, AF1: 3 uM, AE2, AF2: 900 nM, AE3, AF3: 300 nM, AE4, AF4: zero (DMSO). Assay Steps: Six uL of buffer were dispensed to 1536-well Greiner black plates. Compounds and dye standards (23 nL) were transferred via Kalypsys PinTool. The plates were incubated for 15 min at room temperature, and then read on ViewLux (Perkin-Elmer) High-throughput CCD imager using 570 nm and 671 nm excitation and emission filter set. Keywords: NIH Roadmap, MLSCN, MLI, MLSMR, qHTS, NCGC, A647, A-647, Fluorescent Profiling.

Structure (SMILES)	max dye-equivalent concentration
NC1CCCCC1.NP(=O)(O)N(CCCl)CCCl	inactive: 9.5 nM
N#CC1(Nc2ccccc2)CCN(CCc2ccccc2)CC1	inactive: 9.9 nM
O=C(OC1CN2CCC1CC2)C1c2ccccc2Oc2ccccc21 (configuration not stated)	inactive: 31 nM
CCC(CO)(C(=O)OC1CN2CCC1CC2)c1ccccc1 (configuration not stated)	inactive: 50 nM
CCOc1ncccc1C(=O)NCC1(N2CCOCC2)CCCCC1	inactive: 10 nM
O=C(O)C1(Nc2ccccc2)CCN(Cc2ccccc2)CC1	inactive: 21 nM
N/C(=N\O)c1c(N)no[n+]1[O-]	inactive: 21 nM
